Binding of CDR-mutated scFvs to a peptide of the spike HR2 region

The target is the same throughout: PDVDLGDISGINAS, from the HR2 region of SARS-CoV-2 spike.

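The variants were designed computationally from a first round of random CDR variants and then made and measured. Several design methods are mixed in this list. Affinity was read by AlphaSeq, a pooled yeast mating assay with surface-displayed partners. Pairs that bind mate more often; barcode pairs of the diploids are counted by sequencing. A regression on co-assayed BCL2-family reference pairs converts the normalised counts of each replicate to an apparent Kd. There are six technical replicates.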

The variants keep the heavy chain, the linker and the frameworks of Ab-14 (scFv order VH, a 15-residue (Gly4Ser)3 linker, VL).
VH: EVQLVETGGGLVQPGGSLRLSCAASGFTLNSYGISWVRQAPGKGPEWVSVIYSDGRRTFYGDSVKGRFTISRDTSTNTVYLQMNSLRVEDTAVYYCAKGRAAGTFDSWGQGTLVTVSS
VL: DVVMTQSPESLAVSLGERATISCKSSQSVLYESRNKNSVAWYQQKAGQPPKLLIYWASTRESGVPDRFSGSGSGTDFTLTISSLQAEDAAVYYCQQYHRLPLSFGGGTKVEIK

Each variant is given by its three light chain CDRs, as the data file delimits them; those of the parent are KSSQSVLYESRNKNSVA, WASTRES, QQYHRLPLS.
Numbers give log10(Kd / nM), so 0 is 1 nM and 3 is 1 µM. Smaller is tighter.
A mean of the replicates is given; it leaves out those without a signal.
"not detected" marks a missing value. The strain was present, yet no cells mated with the target were sequenced in any replicate, which points to weak or no binding.
The parent sequence was in this pool as ten entries: three were never detected, three once, and four in most replicates, with averages from 0.34 to 2.37.
As a blank, each scFv also met three strains without target: over all light chain designs, 4% of these pairings were detected, typically at 2.64 and seldom below 1.59. Also given: how often the same scFv was detected with the empty control strains.
The authors' rule: three or more of the six replicates give a measured affinity, fewer mean a poor binder.
Values of this round are not directly comparable with the first-round values of the same sequences.

| log10 Kd (nM), mean | replicates with signal | signal with controls | CDR-L1 | CDR-L2 | CDR-L3 |
|---|---|---|---|---|---|
| 0.17 | 6/6 | 3/18 | KIGMTLNQLMHQKQNVA | DLVEREN | QQYFRLPLS |
| 0.54 | 6/6 | 0/18 | QIYQAMHTLSQMKDNVA | DVNERGT | QQYFRLPLS |
| 0.88 | 6/6 | 0/18 | KLSQSHLYESRNKNSVA | HASTRLS | QQYHRLPLS |
| 0.25 | 6/6 | 1/18 | KLPQSHLYESRNKNSVA | HASTRES | QQYHRLPLS |
| -0.39 | 6/6 | 0/18 | KLSQSQLYESRNKNSVA | DASTRLS | QQYHRLPLS |
| 1.45 | 6/6 | 1/18 | KLYERGEESSKVDRSIA | EMSTRQE | QQYQRLPLS |
| not detected | 0/6 | 0/18 | VSSQSVLYESRNQNSVA | WASIRES | QQSHRLPLS |
| 2.28 | 4/6 | 1/18 | MIEEGHAGEIKNSSNIA | SQDQKSD | QQYQRLPLI |
| 0.24 | 6/6 | 1/18 | ALSQNGPQQHGMRDSIA | HSDQRLA | QQYYHLPLA |
| -0.25 | 6/6 | 1/18 | KQQQSDGGMQRNKNSVA | EASTREM | QQYHRLPLS |
| -0.09 | 6/6 | 1/18 | KVPQSNLYESRNANSVA | NASTRLS | QQYHRLPLS |
| 0.38 | 6/6 | 0/18 | KIGGVTNGISFSKNSVA | EQSTREN | QQYDRLPLS |
| 1.99 | 4/6 | 0/18 | KYSQSVLYEHRNKNSVA | WALTRES | QQYHRLPLS |
| 0.66 | 6/6 | 1/18 | KSSISMLYESRNKNSVA | AASTRES | QQYHRLPLS |
| 0.63 | 6/6 | 0/18 | KVQQMWLYESRNCNSVA | NASQREE | QQYHRLPLS |
| -0.41 | 6/6 | 2/18 | KLSCGVDYESRNKNSVA | GASTRES | QQYHRLPLS |
| 0.16 | 6/6 | 1/18 | KFSQSVVYESRTKNSVA | NASTRES | QQYHRLPLS |
| -0.34 | 6/6 | 1/18 | KVSQSMLYESRNKNNVA | DASTRES | QQYHRLPLS |
| 0.47 | 6/6 | 1/18 | ALQMETLGQKQKQNNIA | NQDMRTA | QQYYMLPLS |
| 0.50 | 6/6 | 0/18 | KLSLSVLLESRNVNAVA | EASTRES | QQYHRLPLS |
| -0.62 | 6/6 | 1/18 | QISQSFLYESRNKNSVA | GASTRES | QQYHRLPLS |
| 0.03 | 6/6 | 0/18 | KLQQSELYESRNKNSVA | NASTRCD | QQYHRLPLS |
| 0.10 | 6/6 | 4/18 | KSMQSEQYEDRNKNSVA | EASTRCS | QQYHRLPLS |
| 0.17 | 6/6 | 2/18 | KLEQSQLYESRNKNSVA | SASHREH | QQYHRLPLS |
| 0.23 | 6/6 | 0/18 | KMSQSNPMESRNWNSVA | NASKRES | QQYHRLPLS |
| 1.82 | 6/6 | 1/18 | KMDLYTQQGNLPRNSIA | AATMRWE | QQYSHIPLM |
| -0.30 | 6/6 | 0/18 | KVSQSWLMESRNKNSVA | EASTRNS | QQYHRLPLS |
| 0.09 | 6/6 | 0/18 | KLSQSVLYESDNKNSVA | EADTRES | QQYHRLPLS |
| 0.80 | 6/6 | 0/18 | KQQSSGMMGSRNKNSVA | SASKRES | QQYHRLPLS |
| 0.56 | 6/6 | 1/18 | KSDQGVLYESRVKNSVA | GASTRES | QQYHRLPLS |
| 1.70 | 2/6 | 0/18 | KSNQSVLEESRNKNSVA | WASTRES | QQYHRLPLS |
| 0.05 | 6/6 | 3/18 | KVPQSNLYESRNKNSVA | EASTRES | QQYHRLPLS |
| 2.17 | 1/6 | 0/18 | TISQSVNMTSHGRNSVA | QAEMREA | QQYDRLPLS |
| 1.79 | 6/6 | 5/18 | HLGLVTMLEETVRNSVA | NNSTREE | QQYDRLPLS |
| 0.39 | 6/6 | 1/18 | KSSQSVLYESYNKNSVA | NASTRES | QQYHRLPLS |
| 0.40 | 6/6 | 0/18 | QLSMLTGHVSMSKNNVA | EMETRMN | QQYDRLPLS |
| 1.75 | 4/6 | 2/18 | MISQLMNLGQFAINSVA | QATIRNS | QQYDRLPLS |
| 0.77 | 6/6 | 1/18 | KLSQSVWYESRLKNSVA | NASTRMY | QQYHRLPLA |
| not detected | 0/6 | 0/18 | KSSQSFTYESRNKNSVA | HASTRES | DQYHRLPLS |
| 0.84 | 6/6 | 0/18 | KFNMEVQGQNNNKYNIA | AAHQLEY | QTYHRLPLV |
| 1.68 | 5/6 | 0/18 | KSSQSVLYESHNKNSVA | WASTRES | QQYHRLPNS |
| 0.37 | 6/6 | 0/18 | SLMQSVLYESRNKNSVA | HASCRED | QQYHRLPLS |
| 1.58 | 6/6 | 2/18 | NFSMALEDMGVKTKSIA | ENQLTEY | QQYAKLPLM |
| 0.06 | 6/6 | 1/18 | VIKNMMNTMGTQVQNIA | NGAIKAD | QQYQRLPLW |
| 2.25 | 1/6 | 0/18 | KISMLYNFAQTNKNSIA | EMTTREQ | QHYHRLPLS |
| 1.52 | 6/6 | 3/18 | HIHSQMFGTIAVKKNIA | NANTRLS | QQYSHLPLS |
| -0.23 | 6/6 | 1/18 | KLSQSDLYESRNKNSVA | NASQREQ | QQYHRLPLS |
| 2.24 | 6/6 | 0/18 | MISSVMGINNMYNSSVA | QAEERVE | QQYDRLPLS |
| 0.59 | 6/6 | 0/18 | VMQMERLGQGQYQNNIA | NQDLRTA | QQYYMLPLV |
| -0.54 | 6/6 | 0/18 | KLSQSVGYESRNKNSVA | DASTRES | QQYHRLPLS |
| 1.31 | 6/6 | 0/18 | NLSMELEDAGVKDMSIA | DAELSTW | QQYMRLPLS |
| 2.62 | 5/6 | 0/18 | MLDEYQMYEASNDAAIA | DANDVMP | QQYYSLPLS |
| 0.37 | 6/6 | 1/18 | KLSQSELYESRCDNSVA | SASTRCE | QQYHRLPLS |
| not detected | 0/6 | 0/18 | KSADSVLYEHRNKNSVA | WGMQTEQ | QCYHRIPLS |
| 0.29 | 6/6 | 1/18 | KSSFVYGYESTNSNSVA | DASTRED | QQYHRLPLS |
| 0.41 | 6/6 | 0/18 | KSSQSVLGEQRNKNSVA | DDSTRES | QQYHRLPLS |
| 0.22 | 1/6 | 0/18 | KSSQSVLYESWNKNAVA | EASTRES | QQDHRLMLS |
| not detected | 0/6 | 0/18 | MISQLYNIGTFAINSVA | QASLRCN | QQYDRLPLM |
| 0.97 | 6/6 | 1/18 | KSQQSQLYESRNFNSVA | HASTRES | QQYHRLPLS |
| 0.31 | 6/6 | 3/18 | KSSQSVLYESTNSNSVA | QASTRES | QQYWRLPLS |
| 0.54 | 6/6 | 2/18 | KLDGSDNYESRNKNSVA | EASTRES | QAYHRLPLS |
| 2.57 | 2/6 | 2/18 | TISQAFLMENQFKNSVA | QASTRES | QCYDRLPLS |
| 0.64 | 6/6 | 1/18 | KLSMSWLYESRNWNSVA | NASLRES | QDYHRLPLS |
| -0.30 | 6/6 | 0/18 | KFEQSVLYESRNKNSVA | NASTRES | QQYHRLPLM |
| -0.30 | 6/6 | 1/18 | KVSQSVLYESRNKNAVA | EASQRES | QQYHRLPLS |
| 0.22 | 6/6 | 1/18 | KLSQSELYESRNKNSVA | NASQREV | QQYHRLPLS |
| 2.11 | 3/6 | 0/18 | MLSEVLHMLGVQKNSIA | DLVLRAN | QQYARLPLM |
| -0.29 | 6/6 | 1/18 | KLSQSVEYQSRDKNAVA | NAQTRES | QQYHRLPLS |
| 0.78 | 6/6 | 0/18 | ALELEEMQMMKDINSIA | DTEHKTR | QQYFRLPIS |
| -0.40 | 6/6 | 1/18 | KLSQSGLMESRNKNNVA | EASQRES | QQYHRLPLS |
| not detected | 0/6 | 0/18 | KSSQSFLYTSRNKNSVA | GAYTRES | QQYHRLTLS |

For reference, 5 entries of the list once more:

CDR-L1,CDR-L2,CDR-L3,"log10 Kd (nM), mean",replicates with signal,signal with controls
HIHSQMFGTIAVKKNIA,NANTRLS,QQYSHLPLS,1.52,6/6,3/18
VMQMERLGQGQYQNNIA,NQDLRTA,QQYYMLPLV,0.59,6/6,0/18
MLSEVLHMLGVQKNSIA,DLVLRAN,QQYARLPLM,2.11,3/6,0/18
KVPQSNLYESRNANSVA,NASTRLS,QQYHRLPLS,-0.09,6/6,1/18
KSSQSVLGEQRNKNSVA,DDSTRES,QQYHRLPLS,0.41,6/6,0/18

Data: MIT Lincoln Laboratory AlphaSeq set, Li et al. 2023, doi:10.1038/s41467-023-39022-2, as distributed in FLAb.